In ChEMBL document CHEMBL1156869, “Selective inhibitors of the JMJD2 histone demethylases: combined nondenaturing mass spectrometric screening and crystallographic approaches” (J Med Chem, 2010):

Target: T1, Lysine-specific demethylase 4A (Homo sapiens, UniProt O75164)
T1 sequence (O75164 whole entry): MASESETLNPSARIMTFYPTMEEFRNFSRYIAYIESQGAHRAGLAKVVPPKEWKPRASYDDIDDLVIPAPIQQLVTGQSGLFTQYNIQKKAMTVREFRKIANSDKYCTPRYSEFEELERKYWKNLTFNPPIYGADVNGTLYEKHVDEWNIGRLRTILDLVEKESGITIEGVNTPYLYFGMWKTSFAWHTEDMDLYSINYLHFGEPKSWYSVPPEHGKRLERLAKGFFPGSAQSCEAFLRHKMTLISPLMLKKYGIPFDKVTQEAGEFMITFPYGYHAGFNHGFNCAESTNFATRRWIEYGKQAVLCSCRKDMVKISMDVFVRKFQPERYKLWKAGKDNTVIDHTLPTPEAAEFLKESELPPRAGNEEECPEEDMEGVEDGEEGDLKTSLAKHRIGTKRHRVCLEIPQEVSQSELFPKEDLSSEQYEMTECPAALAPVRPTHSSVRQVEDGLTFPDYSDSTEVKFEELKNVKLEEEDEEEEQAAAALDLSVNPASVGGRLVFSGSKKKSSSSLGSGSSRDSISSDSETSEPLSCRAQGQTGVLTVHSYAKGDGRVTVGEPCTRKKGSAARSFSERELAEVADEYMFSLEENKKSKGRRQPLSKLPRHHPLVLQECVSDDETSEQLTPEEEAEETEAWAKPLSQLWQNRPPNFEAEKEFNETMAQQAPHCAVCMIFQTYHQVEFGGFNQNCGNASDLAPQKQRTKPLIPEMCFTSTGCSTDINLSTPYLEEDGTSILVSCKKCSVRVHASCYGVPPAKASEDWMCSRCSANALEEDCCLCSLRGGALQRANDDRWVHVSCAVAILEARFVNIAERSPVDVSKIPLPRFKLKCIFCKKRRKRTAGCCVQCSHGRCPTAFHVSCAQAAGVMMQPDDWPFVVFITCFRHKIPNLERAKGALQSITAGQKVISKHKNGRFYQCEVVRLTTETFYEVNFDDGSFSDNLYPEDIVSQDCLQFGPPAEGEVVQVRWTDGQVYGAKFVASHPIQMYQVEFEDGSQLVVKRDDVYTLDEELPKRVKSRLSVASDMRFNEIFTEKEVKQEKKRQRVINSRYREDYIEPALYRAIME
Test: Inhibition of JMJD2A by MALDI-TOF assay
In short: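 Reaction started with 2OG (10 μM) and ARKme3STGGK peptide (10 μM), then 30 min at 37 °C. Quenched with methanol. MALDI-TOF methylation-state intensities gave % demethylation; IC50 from concentration variation.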

IC50: 33 µM
Compound: O=C(O)C(=O)N[C@H](Cc1ccc(OCc2ccccc2)cc1)C(=O)O
